Biological target: murine phosphorylated VEGFR2 (Mus musculus, UniProt P35918)
Assay: In vivo target inhibition of murine phosphorylated VEGFR2
Details: read-out: target inhibition (VEGFR activation)

Amino acid sequences for entries named in this document (tags omitted). Residues count along the entry.
UniProt P35918, 20-1345: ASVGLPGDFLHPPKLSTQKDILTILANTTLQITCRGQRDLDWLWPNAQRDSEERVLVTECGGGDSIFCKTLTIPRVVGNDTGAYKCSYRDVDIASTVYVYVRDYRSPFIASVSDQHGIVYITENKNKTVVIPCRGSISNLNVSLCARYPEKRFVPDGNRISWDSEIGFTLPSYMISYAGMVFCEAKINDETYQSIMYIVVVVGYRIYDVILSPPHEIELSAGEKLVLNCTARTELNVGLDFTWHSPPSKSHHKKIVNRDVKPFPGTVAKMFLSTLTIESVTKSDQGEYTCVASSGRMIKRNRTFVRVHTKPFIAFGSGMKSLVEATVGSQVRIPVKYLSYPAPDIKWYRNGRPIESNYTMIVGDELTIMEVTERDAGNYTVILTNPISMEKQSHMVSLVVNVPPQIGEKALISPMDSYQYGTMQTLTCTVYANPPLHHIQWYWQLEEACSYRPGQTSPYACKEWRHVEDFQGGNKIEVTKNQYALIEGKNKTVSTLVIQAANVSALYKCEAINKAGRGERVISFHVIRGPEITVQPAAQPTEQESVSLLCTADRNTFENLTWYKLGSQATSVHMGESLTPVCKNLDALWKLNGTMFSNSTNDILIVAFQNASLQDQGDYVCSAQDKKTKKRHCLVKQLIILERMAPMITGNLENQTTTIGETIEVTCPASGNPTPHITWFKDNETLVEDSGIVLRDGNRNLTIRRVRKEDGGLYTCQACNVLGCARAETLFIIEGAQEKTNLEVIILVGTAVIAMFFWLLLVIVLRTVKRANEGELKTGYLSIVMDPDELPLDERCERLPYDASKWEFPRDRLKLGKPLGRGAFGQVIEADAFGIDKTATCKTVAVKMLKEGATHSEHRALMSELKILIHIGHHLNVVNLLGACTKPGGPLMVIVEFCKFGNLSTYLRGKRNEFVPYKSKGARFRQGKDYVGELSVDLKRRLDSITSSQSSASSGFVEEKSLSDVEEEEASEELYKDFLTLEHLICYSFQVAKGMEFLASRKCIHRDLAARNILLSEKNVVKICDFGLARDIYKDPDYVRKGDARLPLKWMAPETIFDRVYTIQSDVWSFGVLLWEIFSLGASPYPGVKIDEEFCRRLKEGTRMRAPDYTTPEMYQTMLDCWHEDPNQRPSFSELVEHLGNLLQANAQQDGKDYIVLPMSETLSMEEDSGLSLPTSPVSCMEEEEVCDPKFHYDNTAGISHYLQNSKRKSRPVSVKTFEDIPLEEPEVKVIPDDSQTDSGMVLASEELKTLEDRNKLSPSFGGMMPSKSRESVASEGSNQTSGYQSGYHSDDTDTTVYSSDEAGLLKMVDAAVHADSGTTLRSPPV

`CCN(CC)CCNC(=O)c1c(C)[nH]c(/C=C2\C(=O)Nc3ccc(F)cc32)c1C` [sunitinib] showed an inhibition at 20 mg/kg of 95%.

Source: paper PMC6992361 (Molecular cancer therapeutics, 2019)
